Source: PubChem BioAssay
Nrf2 inh: blocks Nrf2 signaling; A549 ARE-Fluc reporter, luciferase luminescence, 18-24 h; Potency, µM (highest dose often 46 µM), inactives show at the top dose activity change, negative = inhibition, actives largely listed as inhibitors; 360,000 compounds, 2.1% hits; further: potency means the concentration at half of the fitted maximal effect; on the % scale 0 is the no-effect control and ±100 the full control effect; nearly all actives have a fitted effect of over 60% in size
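Concentration-response testing used A549 ARE_Fluc cells at 5000 cells/well. Following an 18-24 h compound incubation, viability was read by fluorescence (Ex 405/Em 525) and luciferase output by luminescence.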
Nrf2 ARE act: activators of Nrf2 (ARE) signaling. AREc32 ARE-luciferase reporter (MCF7-derived line), luminescence, 24 h. Potency, µM (series often up to 46.1 µM), for inactives: at the highest dose activation, usual class: activators. 410,000 compounds, 0.31% hits; further: potency means the concentration at half of the fitted maximal effect; % of control where 0% means no effect; nearly all actives have a fitted effect of over 65% in size
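Luciferase luminescence (Steady-Glo, 30 min at room temperature) served as the read-out of ARE activation in AREc32 cells treated with compounds for 24 hr at 37 deg C.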
A549 tox: counter-screen for Nrf2 inhibitors: cytotoxicity in A549 cells; AID 504648; 390,000 compounds, 0.16% hits; A549 ARE-Fluc cells, CellTiter-Fluor viability, 18-24 h; Potency, µM (doses to about 46 µM), for the others: top-dose activity change, negative = cytotoxicity, usual class: inhibitors; further: potency means the concentration at half of the fitted maximal effect; on the % scale 0 is the no-effect control and ±100 the full control effect
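A549 ARE_Fluc cells in 5% FBS OPTI-MEM were exposed to compounds in concentration-response for 18-24 h at 37 deg C. Viability was read by CellTiter-Fluor fluorescence (Ex 405/Em 525) after 30 min, before the luciferase read.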
miR-21 reporter: raises the signal of a miR-21 reporter; 340,000 tested, under 10 active; HeLa miR-21 FLuc reporter, luciferase, 48 h; Potency, µM (series often up to 38.3 µM), for inactives: at the highest dose reporter change, positive = more light; active = well fitted rising curve with a large enough effect; inconclusive = small, poorly fitted or top-dose-only effect; inactive = no such curve, though single readings can be large or run the other way;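 further: % of control where 0% means no effect; miR-21 action dims this reporter so a rising signal means less miR-21 action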
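HeLa cells endogenously expressing miR-21, stably carrying CMV-driven firefly luciferase with a downstream miR-21 binding site, 2000 cells/well. Titrations up to approximately 40 uM, 48 hours; luciferase luminescence read.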
B2AR arrestin: beta2AR (human) beta-arrestin recruitment activity; P07550; beta-arrestin recruitment to beta2AR, cell-based reporter; Potency, µM (top dose mostly 46.1 µM), inactives show at the highest dose activation, most hits filed as activators; 330,000 compounds, 0.02% hits; AID 492947;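 further: potency means the concentration at half of the fitted maximal effect; 0% = DMSO controls and full agonism = EC100 isoproterenol or metaproterenol; nearly all actives have a fitted effect of over 65% in size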
* hit, by the source's call. Only some compounds are listed: those with a hit (about 2.2% of all), similar ones and a draw of the others. Unless noted, the call rests on the fitted dose curve; in most records, active means well fitted curve in the direction sought with a large enough effect; inconclusive means small, poorly fitted or top-dose-only effect, or another doubt; inactive means no such curve, though single readings can be large; an effect the other way counts as inactive or inconclusive.

Screening Cc1[nH]nc2nc(SCC(=O)NC3CCCCC3)n(-c3ccc(Br)cc3)c(=N)c12 returned Nrf2 inh 18µM*, Nrf2 ARE act 0%, A549 tox inconclusive, miR-21 reporter 0% and B2AR arrestin 0%.
COc1ccccc1NC(=O)CSc1nc2n[nH]c(C)c2c(=N)n1-c1ccccc1Cl was read as Nrf2 inh 13µM*, Nrf2 ARE act 1%, A549 tox -10%, miR-21 reporter 15% and B2AR arrestin 0%.
`CCCN(CCC)C(=O)CSc1nc2n[nH]c(C)c2c(=N)n1-c1ccc(OC)cc1` gave Nrf2 inh 18µM*, Nrf2 ARE act -1%, A549 tox inconclusive, miR-21 reporter 23% and B2AR arrestin 5%.
For COc1ccccc1NS(=O)(=O)c1ccc2c(c1)CCC(=O)N2 the results were Nrf2 inh 3% and A549 tox 9%.
Screening O=C(C1CCC(CNc2nc(=S)[nH]c3ccccc23)CC1)N1CCN(c2ccccn2)CC1 (stereo unspecified) returned Nrf2 inh 16µM*, Nrf2 ARE act 0%, A549 tox inconclusive, miR-21 reporter -3% and B2AR arrestin -1%.
Screening COc1cc2c(c(OC)c1OC)-c1ccc(SC)c(=O)cc1C(NC(=O)c1ccccc1)CC2 (stereo unspecified) returned Nrf2 inh inconclusive, Nrf2 ARE act 7% and A549 tox 18µM*.
For COc1cc2c(c(OC)c1OC)-c1ccc(OC)c(=O)cc1C(NC(=O)c1ccccc1)CC2 (stereo unspecified) the results were Nrf2 inh inconclusive, Nrf2 ARE act 2% and A549 tox -27%.
Cc1nn(CCC(=O)Nc2cc(F)ccc2F)c(=O)c2nn(-c3ccccc3)c(C)c12 was read as Nrf2 inh -15%, Nrf2 ARE act 1%, A549 tox 3% and miR-21 reporter 21%.
For O=S(=O)(c1ccc2c(c1)OCCO2)N1CCN(S(=O)(=O)c2ccccc2OC(F)(F)F)CC1 the results were Nrf2 inh -5% and A549 tox 0%.
Cc1ccc(CN2C(=O)SC(Nc3ccc(Cl)cc3)C2=O)cc1 (stereo unspecified) was read as Nrf2 inh 1%, Nrf2 ARE act 3%, A549 tox 0% and miR-21 reporter 3%.
For NC(=O)c1cc2c3ccccc3ccn2c1-c1ccccc1 the results were Nrf2 inh 12%, Nrf2 ARE act 10µM*, A549 tox -10%, miR-21 reporter 15% and B2AR arrestin 0%.
For Cc1cc(C(N)=O)c2ccccc2n1 the results were Nrf2 inh 4%, Nrf2 ARE act 0%, A549 tox 2%, miR-21 reporter 0% and B2AR arrestin 0%.
For Cc1c(NC=C(C#N)C#N)c(=O)n(-c2ccccc2)n1C the results were Nrf2 inh inconclusive, Nrf2 ARE act 2%, A549 tox -9%, miR-21 reporter -1% and B2AR arrestin 0%.
For Cc1ccccc1C(=O)/C(C#N)=N/Nc1c(C)n(C)n(-c2ccccc2)c1=O the results were Nrf2 inh 8.2µM*, Nrf2 ARE act 0%, A549 tox 18µM*, miR-21 reporter 23% and B2AR arrestin -1%.
CCOC(=O)/C(C#N)=N/Nc1c(C)n(C)n(-c2ccccc2)c1=O was read as Nrf2 inh inconclusive, Nrf2 ARE act 0%, A549 tox -29%, miR-21 reporter 5% and B2AR arrestin -1%.
For Cc1c(N/N=C(\C#N)C(=O)c2ccccc2)c(=O)n(-c2ccccc2)n1C the results were Nrf2 inh inconclusive, Nrf2 ARE act -1%, A549 tox 21µM*, miR-21 reporter 20% and B2AR arrestin 0%.
Cc1cc2c(s1)c1cnn(Cc3c(F)cc(F)cc3F)c(=O)c1n2C was read as Nrf2 inh 6% and A549 tox -3%.
COc1cc(NC(=O)C(OC(=O)CNC(=O)c2ccccc2)c2ccccc2)cc(OC)c1 (stereo unspecified) was read as Nrf2 inh -18% and A549 tox -3%.
Screening Cc1ccc(Nc2c([N+](=O)[O-])c(=O)oc3ccccc23)cc1 returned Nrf2 inh 18µM*, Nrf2 ARE act inconclusive, A549 tox inconclusive, miR-21 reporter 24% and B2AR arrestin 0%.
For Cc1cc(OCc2cc(C(=O)N3CCN(C)C(=O)[C@@H]3C)no2)cc(C)c1Cl the results were Nrf2 inh 21µM*, Nrf2 ARE act 0%, A549 tox -10%, miR-21 reporter 23% and B2AR arrestin 0%.
`O=C(OCC#CCSc1nnc(-c2cccc3ccccc23)o1)c1ccc(F)cc1F` gave Nrf2 inh 23% and A549 tox -5%.
Screening O=C(Nc1nnc(-c2ccccc2Cl)o1)c1ccco1 returned Nrf2 ARE act 13µM*, A549 tox 2%, miR-21 reporter -7% and B2AR arrestin 0%.
`COc1cc(OC)cc(C(=O)Nc2ccc(NC(=O)c3ccco3)c(Cl)c2)c1` gave Nrf2 inh 26µM*, Nrf2 ARE act 0%, A549 tox inconclusive, miR-21 reporter -27% and B2AR arrestin 2%.
O=C(NC(=S)Nc1cc(Cl)ccc1Cl)c1ccco1 was read as Nrf2 ARE act 11µM*.
Screening O=C(NC(=S)Nc1ccccc1Br)c1ccco1 returned Nrf2 inh inconclusive, Nrf2 ARE act 14µM*, A549 tox 8%, miR-21 reporter -52% and B2AR arrestin 0%.
Cc1cc(O)c(NC(=O)c2ccco2)cc1C was read as Nrf2 inh inconclusive, Nrf2 ARE act 13µM*, A549 tox 4%, miR-21 reporter -44% and B2AR arrestin 0%.
Screening COc1cccc(C(=O)Nc2cc(NC(=O)c3ccco3)ccc2OC)c1 returned Nrf2 inh -24%, Nrf2 ARE act 0%, A549 tox 1%, miR-21 reporter 1% and B2AR arrestin 0%.
Screening O=C(NC(=S)Nc1cccc(NC(=S)NC(=O)c2ccco2)n1)c1ccco1 returned Nrf2 inh 24%, Nrf2 ARE act 6.3µM*, A549 tox 7%, miR-21 reporter -6% and B2AR arrestin inconclusive.
O=C(Nc1cc(Cl)ccc1Cl)c1ccco1 was read as Nrf2 inh 3%, Nrf2 ARE act 13µM*, A549 tox 7%, miR-21 reporter -5% and B2AR arrestin -1%.
Cc1ccc(O)c(NC(=O)c2ccco2)c1 was read as Nrf2 inh inconclusive, Nrf2 ARE act inconclusive, A549 tox 8%, miR-21 reporter -37% and B2AR arrestin 0%.
Nc1ccc(NC(=O)c2ccco2)c(Cl)c1 was read as Nrf2 inh 20%, Nrf2 ARE act 0%, A549 tox 8%, miR-21 reporter -25% and B2AR arrestin 0%.
Screening CCCCOc1cccc(C(=O)Nc2cc(NC(=O)c3ccco3)ccc2OC)c1 returned Nrf2 inh 23µM*, Nrf2 ARE act 4%, A549 tox -11% and miR-21 reporter 28%.

Grouped by structure: the entries above with fluorine (4)
Cc1nn(CCC(=O)Nc2cc(F)ccc2F)c(=O)c2nn(-c3ccccc3)c(C)c12 was read as Nrf2 inh -15%, Nrf2 ARE act 1%, A549 tox 3% and miR-21 reporter 21%.
For O=S(=O)(c1ccc2c(c1)OCCO2)N1CCN(S(=O)(=O)c2ccccc2OC(F)(F)F)CC1 the results were Nrf2 inh -5% and A549 tox 0%.
Cc1cc2c(s1)c1cnn(Cc3c(F)cc(F)cc3F)c(=O)c1n2C was read as Nrf2 inh 6% and A549 tox -3%.
`O=C(OCC#CCSc1nnc(-c2cccc3ccccc23)o1)c1ccc(F)cc1F` gave Nrf2 inh 23% and A549 tox -5%.
